We go through one substance from patent US10287301B2 (Achillion Pharmaceuticals, Inc., priority 2015, dated 2019).

The chains behind the UniProt entries cited, without tags or fusion partners. Residues count along the entry.
UniProt P00746, 26-253: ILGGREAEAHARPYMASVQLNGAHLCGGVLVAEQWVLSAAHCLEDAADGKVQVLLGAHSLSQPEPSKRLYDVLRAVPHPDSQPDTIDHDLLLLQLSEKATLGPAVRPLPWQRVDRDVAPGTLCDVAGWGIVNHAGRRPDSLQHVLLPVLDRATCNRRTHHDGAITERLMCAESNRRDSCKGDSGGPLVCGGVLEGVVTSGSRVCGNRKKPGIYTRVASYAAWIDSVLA

In the test the target is Human Factor D (Homo sapiens (Human), UniProt P00746). Briefly: Human Factor D Assay. Format: biochemical. The conditions noted are these: read-out: IC50 (Stars). As to the method:
Human Factor D (purified from human serum, Complement Technology, Inc.) at 80 nM final concentration was incubated with test compound at various concentrations for 5 minutes at room temperature in 50 mM Tris, 1M NaCl, pH 7.5. A synthetic substrate Z-L-Lys-SBzl and DTNB (Ellman's reagent) are added to final concentrations of 100 μM each. […] IC50 values are calculated by nonlinear regression of complement Factor D reaction rates as a function of test compound concentration.

For “(2S,4R)-1-(2-(3- acetyl-5-(2- methyl-3H- imidazo[4,5- b]pyridin-6-yl)- 1H-indazol-1- yl)acetyl)-N-(6- bromopyridin-2- fluoropyrrolidine- 2-carboxamide [Compound 347]”, the IC50 was < 1 µM.

The IC50 is the concentration needed to halve the response being measured.
